In ChEMBL document CHEMBL5500368, “Discovery of novel diaryl substituted isoquinolin-1(2H)-one derivatives as hypoxia-inducible factor-1 signaling inhibitors for the treatment of rheumatoid arthritis” (Eur J Med Chem, 2024):

Test: Cytotoxicity against human MH7A cells

For `O=c1c2ccc(-c3ccoc3)cc2ccn1CCc1ccccc1`, the CC50 was greater than 50 µM.
